{
  "sequences": {"note": "Sequences of proteins named here, by UniProt entry; tags and fusion partners are left off.", "UniProt P21397, whole entry": "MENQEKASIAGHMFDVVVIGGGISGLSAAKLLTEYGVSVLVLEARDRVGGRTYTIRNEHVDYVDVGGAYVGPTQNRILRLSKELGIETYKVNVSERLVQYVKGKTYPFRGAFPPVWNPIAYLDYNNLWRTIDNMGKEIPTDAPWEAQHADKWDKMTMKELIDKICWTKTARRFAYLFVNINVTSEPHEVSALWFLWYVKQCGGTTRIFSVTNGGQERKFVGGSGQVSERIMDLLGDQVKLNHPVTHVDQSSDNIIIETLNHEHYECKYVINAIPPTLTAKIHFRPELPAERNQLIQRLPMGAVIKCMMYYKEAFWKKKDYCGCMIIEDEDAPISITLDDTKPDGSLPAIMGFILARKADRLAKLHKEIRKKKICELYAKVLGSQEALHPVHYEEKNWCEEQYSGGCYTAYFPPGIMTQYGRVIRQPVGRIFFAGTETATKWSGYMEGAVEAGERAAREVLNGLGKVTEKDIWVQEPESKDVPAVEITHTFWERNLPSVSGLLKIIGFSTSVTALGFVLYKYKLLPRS"},
  "source": "paper PMC7795340",
  "about": "“First Synthesis of Racemic Trans Propargylamino-Donepezil, a Pleiotrope Agent Able to Both Inhibit AChE and MAO-B, with Potential Interest against Alzheimer’s Disease” (Molecules, 2020)",
  "biological_target": "T1, human recombinant MAO-A (Homo sapiens, UniProt P21397)",
  "T1 construct": "purchased Sigma Aldrich; host or cells: baculovirus infected insect cells (microsomes)",
  "assay": "(h)MAO-A inhibition, kynuramine fluorescence assay",
  "assay_type": "biochemical",
  "conditions": "read-out: (h)MAO-A IC50 (µM) (n = 3), mean ± SEM, kynuramine 50 µM",
  "procedure": "Inhibition of human recombinant monoamine oxidases A (250 U/mg) and B (59 U/mg; microsomes from baculovirus infected insect cells; Sigma Aldrich) was determined as already described, measuring the fluorescence of 4-hydroxyquinoline (exc. 310 nm; em. 400 nm) produced by MAOs in the oxidative deamination of substrate kynuramine. […] Assays were performed in triplicate during three independent tests, in 96-well black polystyrene plates (Greiner Bio-One, Kremsmünster, Austria) using an Infinite M1000 Pro plate reader (Tecan, Cernusco s.N., Italy). […]; GraphPad Software, San Diego, CA, USA).",
  "data": [
    {"molecule": "C#CCN(C)Cc1ccccc1", "note": "[Pargiline, pargiline, reference compound]", "values": [
      {"measurement": "IC50", "result": "10.9 ± 0.6", "unit": "µM"}
    ]}
  ]
}
